The text below walks through data of US7687482B2, “Bisphosphonate compounds and methods” (The Board of Trustees of the University of Illinois, priority 2006, dated 2010).

Sequences of proteins named here, by UniProt entry; tags and fusion partners are left off.
UniProt P14324, whole entry: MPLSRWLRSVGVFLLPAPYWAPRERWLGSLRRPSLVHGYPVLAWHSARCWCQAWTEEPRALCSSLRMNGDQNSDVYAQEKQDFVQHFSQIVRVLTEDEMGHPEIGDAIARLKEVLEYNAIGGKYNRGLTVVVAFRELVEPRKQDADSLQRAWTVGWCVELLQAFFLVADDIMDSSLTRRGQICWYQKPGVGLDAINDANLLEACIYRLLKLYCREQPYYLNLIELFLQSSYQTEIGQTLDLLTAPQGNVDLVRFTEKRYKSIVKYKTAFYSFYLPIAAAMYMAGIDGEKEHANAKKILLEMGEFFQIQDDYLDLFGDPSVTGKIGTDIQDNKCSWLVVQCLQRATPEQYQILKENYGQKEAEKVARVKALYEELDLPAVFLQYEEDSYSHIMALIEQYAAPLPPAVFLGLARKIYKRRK

For assay [1], the system named is D. discoideum. As to the kind of experiment: D. discoideum growth inhibition. In kind it is cell-based, Dictyostelium discoideum. Conditions: read-out: D. discoideum IC50.
For assay [2], the target named is Human FPPS (Homo sapiens, UniProt P14324). Nature of the assay: Human FPPS inhibition. In kind it is biochemical. Conditions: read-out: Human FPPS Ki.
Assay [3] has as its system Gammadelta T cell. As to the kind of experiment: Gammadelta T cell stimulation. In kind it is cell-based, human. The note with it: read-out: Gammadelta T cell stimulation, EC50.

In the case of `CCCC[S+](C)CC(O)(P(=O)([O-])O)P(=O)(O)O` (stereo not drawn), the concentration for half-maximal inhibition (IC50) in assay [1] turned out to be 8.3 µM. Moreover, in assay [2], the Ki was determined as 0.00434 µM. Further, the EC50 in assay [3] is 261 µM.

As for `CCCCCCCC[S+](C)CCC(O)(P(=O)([O-])O)P(=O)(O)O` (stereo not drawn), the IC50 in assay [1] stood at 4.94 µM. Besides, the inhibitory constant (Ki) in assay [2] turned out to be 0.0125 µM. The EC50 in assay [3] stood at 96.4 µM.

For the compound `O=P([O-])(O)C(O)(CCC[S+]1CCCC1)P(=O)(O)O` (stereo not drawn), the IC50 in assay [1] stood at 101 µM. Further, in assay [2], the inhibitory constant (Ki) is 0.00984 µM. Besides, the EC50 in assay [3] turned out to be 376 µM.

Regarding `O=P([O-])(O)C(O)(C[S+]1CCCCC1)P(=O)(O)O` (stereo not drawn), the IC50 in assay [1] was determined as 6.58 µM. Moreover, the Ki in assay [2] stood at 0.00342 µM. Also, the EC50 in assay [3] was found to be 75.5 µM.

Consider `C[S+](CCc1ccccc1)CCC(O)(P(=O)([O-])O)P(=O)(O)O` (stereo not drawn), for which the IC50 in assay [1] stood at 5.73 µM. In addition, the Ki in assay [2] is 0.00492 µM. In assay [3], the EC50 was determined as 309 µM.

Take `CCC[S+](C)CC(O)(P(=O)([O-])O)P(=O)(O)O` (stereo not drawn): the IC50 in assay [1] stood at 11.2 µM. Moreover, the Ki in assay [2] came out at 0.00514 µM. Besides, in assay [3], the EC50 turned out to be 52 µM.

Take `O=P([O-])(O)C(O)(CC[S+]1CCCCC1)P(=O)(O)O` (stereo not drawn): the IC50 in assay [1] came out at 13.4 µM. The Ki in assay [2] came to 0.00351 µM. Also, in assay [3], the EC50 turned out to be 200 µM.

Regarding `O=P([O-])(O)C(O)(C[S+]1CCCC1)P(=O)(O)O` (stereo not drawn), the IC50 in assay [1] was 5.95 µM. The inhibition constant Ki in assay [2] is 0.00354 µM. Besides, the EC50 in assay [3] worked out at 17.3 µM.

`O=P([O-])(O)C(O)(CC[S+]1CCCC1)P(=O)(O)O` (stereo not drawn): the IC50 in assay [1] is 5.62 µM. Moreover, the inhibition constant Ki in assay [2] stood at 0.00292 µM. Also, the EC50 in assay [3] was found to be 26 µM.

For `O=P([O-])(O)C(O)(C[S+]1CCC(c2ccccc2)C1)P(=O)(O)O` (stereo not drawn), the IC50 in assay [1] was determined as 7.15 µM. Moreover, the Ki in assay [2] came to 0.0139 µM. Moreover, the EC50 in assay [3] turned out to be 414 µM.

As for `C[S+](CCCOc1ccccc1)CC(O)(P(=O)([O-])O)P(=O)(O)O` (stereo not drawn), in assay [1], the IC50 came to 8.87 µM. Besides, in assay [2], the inhibitory constant (Ki) is 0.00344 µM. Further, the EC50 in assay [3] stood at 217 µM.

For the compound `CCC[S+](C)CCC(O)(P(=O)([O-])O)P(=O)(O)O` (stereo not drawn), the half-maximal inhibitory concentration (IC50) in assay [1] is 14.6 µM. In addition, the Ki in assay [2] turned out to be 0.00336 µM. The EC50 in assay [3] was 43.5 µM.

On to `C[S+](C)CCC(O)(P(=O)([O-])O)P(=O)(O)O` (stereo not drawn), for which the IC50 in assay [1] turned out to be 7.51 µM. In addition, the inhibition constant (Ki) in assay [2] stood at 0.00524 µM. In addition, the EC50 in assay [3] stood at 23.7 µM.

As usually defined, the IC50 is the concentration needed to halve the response being measured. What is called Ki is the equilibrium dissociation constant of an inhibitor or competing ligand from its target.
